Source: patent US5916906A, “Compositions comprising nicotinylalanine and an inhibitor of glycine conjugation or vitamin B6” (priority 1997, dated 1999)

Test: Plasma nicotinamide levels in LP-BM5 infected mice (HPLC)
Type: in vivo, C57BL/6 mice
Conditions: Month 4; NAL 400 mg/kg, ASA 20 mg/kg, AZT as in Table 4

Cc1cn([C@H]2C[C@H](N=[N+]=[N-])[C@@H](CO)O2)c(=O)[nH]c1=O [AZT, 3'azido-3'deoxythymidine, reference compound]
Ratio of plasma nicotinamide mean to placebo (PBS Control, Group 1): 2.32
